Measured values taken from PubChem BioAssay AID1224863 (Southern Research Institute, 2016).
Out of some 10,000 compounds screened, about 15 (0.1%) were called active.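 How the source made its calls: active means highest signal at least 8 times the median of untreated cell-only control wells at some dose; inactive means the rest.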 These entries were drawn from the full list.

Sequences of proteins named here, by UniProt entry; tags and fusion partners are left off. A line that says so, or that is headed by a name, gives the form on record, which may keep a tag or linker.
UniProt P13569, with tags, fused parts or gaps F508del: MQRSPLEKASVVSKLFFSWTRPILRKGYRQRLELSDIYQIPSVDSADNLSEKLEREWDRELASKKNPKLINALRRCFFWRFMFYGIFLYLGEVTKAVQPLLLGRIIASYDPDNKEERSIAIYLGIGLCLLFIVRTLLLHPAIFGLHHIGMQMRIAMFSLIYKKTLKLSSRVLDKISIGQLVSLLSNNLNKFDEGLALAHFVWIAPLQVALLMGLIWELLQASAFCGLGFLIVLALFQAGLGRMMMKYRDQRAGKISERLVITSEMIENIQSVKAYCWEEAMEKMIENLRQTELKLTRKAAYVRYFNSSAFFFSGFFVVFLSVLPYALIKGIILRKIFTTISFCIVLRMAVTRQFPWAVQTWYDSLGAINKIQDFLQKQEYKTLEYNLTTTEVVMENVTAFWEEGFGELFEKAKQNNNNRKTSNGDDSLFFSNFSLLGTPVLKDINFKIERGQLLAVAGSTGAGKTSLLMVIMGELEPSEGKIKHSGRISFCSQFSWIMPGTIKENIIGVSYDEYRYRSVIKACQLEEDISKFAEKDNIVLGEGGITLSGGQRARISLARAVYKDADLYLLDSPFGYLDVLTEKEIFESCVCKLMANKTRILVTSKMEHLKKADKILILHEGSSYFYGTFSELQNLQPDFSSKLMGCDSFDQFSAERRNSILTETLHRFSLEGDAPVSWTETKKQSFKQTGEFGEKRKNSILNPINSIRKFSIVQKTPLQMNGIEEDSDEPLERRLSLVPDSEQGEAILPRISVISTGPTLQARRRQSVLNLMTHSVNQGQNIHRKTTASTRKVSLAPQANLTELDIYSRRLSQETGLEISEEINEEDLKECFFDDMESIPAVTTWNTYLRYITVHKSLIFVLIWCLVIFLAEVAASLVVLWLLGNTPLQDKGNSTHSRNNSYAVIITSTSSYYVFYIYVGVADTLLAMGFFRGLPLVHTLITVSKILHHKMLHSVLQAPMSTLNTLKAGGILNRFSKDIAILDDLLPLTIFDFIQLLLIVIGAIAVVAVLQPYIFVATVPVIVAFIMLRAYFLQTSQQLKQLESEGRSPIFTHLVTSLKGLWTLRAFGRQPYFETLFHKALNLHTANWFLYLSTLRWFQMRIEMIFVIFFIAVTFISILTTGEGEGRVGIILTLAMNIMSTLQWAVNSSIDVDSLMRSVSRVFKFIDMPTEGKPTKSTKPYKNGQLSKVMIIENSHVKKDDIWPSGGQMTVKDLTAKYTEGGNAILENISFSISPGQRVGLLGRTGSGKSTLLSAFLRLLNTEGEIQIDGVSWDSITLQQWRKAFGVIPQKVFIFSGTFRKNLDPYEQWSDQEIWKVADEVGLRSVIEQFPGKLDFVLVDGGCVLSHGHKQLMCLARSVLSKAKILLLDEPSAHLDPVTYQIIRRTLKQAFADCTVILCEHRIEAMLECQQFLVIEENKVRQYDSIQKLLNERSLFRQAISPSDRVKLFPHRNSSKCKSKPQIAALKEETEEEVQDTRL

How the values were obtained:
[1] = compounds raising F508del-CFTR protein level – cell-based, HeLa F508del-CFTR, immunofluorescence, viability, primary screen (AID 1224863); settings: immunofluorescence total CFTR, 24 h, stronger effect = higher value; min viability: measured here: HeLa viability, alamarBlue, dose 20, library dosed in µg/mL unless noted; viability: measured here: primary viability 10 ug/mL, library dosed in µg/mL unless noted;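 on fold increase: total CFTR protein by anti-CFTR immunofluorescence in fixed cells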;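 on max fold increase: total CFTR protein by anti-CFTR immunofluorescence in fixed cells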
[2] = biological target: Cystic fibrosis transmembrane conductance regulator (Homo sapiens) (UniProt P13569); test: as above; settings: immunofluorescence total CFTR, 24 h; fold increase: measured here: primary screen 10 ug/mL, library dosed in µg/mL, stronger effect = higher value unless noted; max fold increase: dose 10, library dosed in µg/mL, stronger effect = higher value unless noted; outcome: library dosed in µg/mL unless noted

SMILES	viability [1] [%]	fold increase [2]	outcome [2]	min viability [1] [%]	max fold increase [2]
N#Cc1c(/C=C/c2ccc3c(c2)OCCO3)cc(-c2cccc(Cl)c2)n2c1nc1ccccc12	99	1.16	inactive		
CC(C)CN1CC(C(=O)Nc2ccc3c(c2)OC2(CCCC2)O3)CC1=O (stereo not drawn)	83	1.08	inactive		
O=C(OCc1cc(Cl)c2c(c1)OCO2)c1ccco1	90	0.99	inactive		
O=C(Cn1ncc(Cl)c(Cl)c1=O)N1CCNC1=O	78	1.56		70	3.11 (inactive)
CCOCCCNc1sc(S(C)(=O)=O)nc1S(=O)(=O)c1ccc(C)cc1	93	1.05	inactive		
CC(C#N)Sc1nnnn1-c1ccc(Cl)cc1 (stereo not drawn)	98	0.96	inactive		
C=CCOc1ccccc1/C=C(/C#N)c1nc(N)nc(N(C)C)n1	85	1.09	inactive		
N#Cc1ccc(/C=C2\CSc3ccccc3C2=O)cc1	56	0.79	inactive		
CC1(c2ccc3c(c2)OCO3)NC(=O)N(Cc2ccc3c(c2)OCO3)C1=O (stereo not drawn)	100	0.99	inactive		
CS(=O)(=O)NC1CCN(CC(=O)NC2CC2)CC1	105	1.17	inactive		
S=c1n(CN(C2CCCC2)C2CC2)nc(N2CCOCC2)n1-c1ccccc1	102	1.03	inactive		
CC(C)N1C(=O)c2ccc(C(=O)Nc3ccc(I)cc3)cc2S1(=O)=O	92	0.96	inactive		
Cc1cnc(NC(=O)COCC2CC2)s1	100	1.01	inactive		
CCN1C(=O)c2ccccc2N2C(=O)CCC12C(=O)NC(C)c1ccc(F)cc1 (stereo not drawn)	97	0.96	inactive		
CCC(C)(C)NCC(=O)N1c2ccccc2NC(=O)C1(C)C	93	1.11	inactive		
NC(=O)C1CCCN1S(=O)(=O)c1ccc(Cl)s1 (stereo not drawn)	97	1.06	inactive		
Cn1ncc2c(NCC(=O)NC(C)(C)C)ncnc21	91	1.05	inactive		
CS(=O)(=O)c1ccc(Oc2ccc3c(c2)OCCO3)c([N+](=O)[O-])c1	92	0.98	inactive		
CCn1c(SCCS(=O)(=O)c2ccc(Br)cc2)nc2ccccc21	74	0.65	inactive		
CN1CCN(C(=O)C2CCN(C(=O)OCC(F)(F)F)CC2)c2nc3ccccc3nc21	85	0.99	inactive		
CN(C)S(=O)(=O)N1CCN(Cc2ccccc2CN2CCN(S(=O)(=O)N(C)C)CC2)CC1	94	0.9	inactive		
CS(=O)(=O)NC1CCCN(c2nc(-c3ccccc3)nc3ccccc23)C1 (stereo not drawn)	91	0.95	inactive		
COc1cc(OC)cc(-c2nnc(SCCc3ccccc3)o2)c1	105	0.99	inactive		
FC(F)(F)c1cnc(Nc2ccc3c(c2)OCCO3)c(Cl)c1	81	0.98	inactive		
CC1CCC2(CC1)NC(=O)N(CN1CCC(C(=O)c3ccc4c(c3)OCCO4)CC1)C2=O (stereo not drawn)	97	1.04	inactive		
O=C(OCCOc1ccc(Br)cc1)C1(c2cccc(F)c2)CCCC1	77	0.97	inactive		
C=CCn1c(C)cc(-c2csc(NC(=O)C3CC3)n2)c1C	93	1.02	inactive		

SMILES	viability [1] [%]	fold increase [2]	outcome [2]	min viability [1] [%]	max fold increase [2]
Cn1cc(C#N)c(=O)n(CC(=O)Nc2sccc2C(N)=O)c1=O	104	1.07	inactive		
O=S(=O)(Nc1ccc(Cl)c(S(=O)(=O)N2CCOCC2)c1)c1ccc2ccccc2c1	93	1.11	inactive		
Cc1cc(C(=O)COc2cc(C(F)(F)F)cc(C(F)(F)F)c2)c(C)n1Cc1ccc2c(c1)OCO2	90	1.11	inactive		
CCCCOCCCNS(=O)(=O)c1ccc(S(=O)(=O)C(F)F)cc1	80	0.94	inactive		
Cc1ccsc1C(=O)N1CCN(S(=O)(=O)N(C)C2CCCCC2)CC1	83	0.92	inactive		
O=C1c2ccccc2C(O)(c2ccc(Cl)cc2)N1CCSCc1ccco1 (stereo not drawn)	77	0.9	inactive		
Cn1cc(S(=O)(=O)NC2(c3ccc4c(c3)OCCO4)CCCC2)c(=O)n(C)c1=O	94	1.05	inactive		
O=C(NC1CCCCCC1)C1CC=CCC1 (stereo not drawn)	96	1.02	inactive		
O=c1c2ccccc2nnn1COc1ccccc1Cl	116	0.98	inactive		
CCOCCSc1nnc(-c2ccccc2)n1C	106	1.04	inactive		
Fc1ccc2sc(CNc3ccc4nnnn4n3)cc2c1	105	1.2	inactive		
CCN(CC)C(=O)C(C)NC(=O)c1c(C)oc(-n2cccc2)c1C#N (stereo not drawn)	90	0.95	inactive		
Cc1noc(C)c1CN1CCCC(NS(C)(=O)=O)C1 (stereo not drawn)	110	1.04	inactive		
CC(C)n1nnnc1SCc1ccc([N+](=O)[O-])cc1	91	0.94	inactive		
Clc1ccc(CN2CCN(c3ccc(Br)cn3)CC2)s1	105	1.02	inactive		
O=C(NCCc1ccccc1F)NC1CCSc2ccccc21 (stereo not drawn)	95	1.02	inactive		
COc1ccccc1-c1noc(CSC23CC4CC(CC(C4)C2)C3)n1	70	0.79	inactive		
O=S(=O)(Nc1ccc2c(c1)OCCO2)c1cc(F)cc(F)c1	97	0.92	inactive		
O=C(NCCc1ccc2c(c1)OCCO2)NCc1cccnc1OC1CCCC1	91	0.85	inactive		
CCC1CCC2(CC1)NC(=O)N(CC(=O)NCC1CCCO1)C2=O (stereo not drawn)	102	0.98	inactive		
Cc1[nH]c2ccccc2c1C(=O)C(C)OC(=O)C12CC3CC(C1)CC(c1ccccc1)(C3)C2 (stereo not drawn)	85	0.91	inactive		
CC(C)c1ccc(C(NC(=O)CN2C(=O)NC(C)(c3ccc4c(c3)OCO4)C2=O)C(C)C)cc1 (stereo not drawn)	81	0.84	inactive		
Cn1nnn(CN2CCN(c3ccccc3)CC2)c1=S	101	1.1	inactive		
CNc1nnc(Sc2nc3cc(C)nn3c3ccccc23)s1	97	1.1	inactive		
CN(CC(=O)NC(=O)NCCC1=CCCCC1)Cc1ccc(Cl)s1	85	0.92	inactive		
C#CCOc1ccc(CNC(C)c2ccc(Br)cc2)cc1OCC (stereo not drawn)	76	0.94	inactive		
CN(Cc1ccccc1Cl)Cn1ncn(-c2cccc(Cl)c2)c1=S	105	1.04	inactive		
